Broadly, the pKi is the Ki on a negative log10 scale, so that one unit is a factor of ten.

Amino acid sequences for entries named in this document (tags omitted). Residues count along the entry.
UniProt P27958, 1027-1657: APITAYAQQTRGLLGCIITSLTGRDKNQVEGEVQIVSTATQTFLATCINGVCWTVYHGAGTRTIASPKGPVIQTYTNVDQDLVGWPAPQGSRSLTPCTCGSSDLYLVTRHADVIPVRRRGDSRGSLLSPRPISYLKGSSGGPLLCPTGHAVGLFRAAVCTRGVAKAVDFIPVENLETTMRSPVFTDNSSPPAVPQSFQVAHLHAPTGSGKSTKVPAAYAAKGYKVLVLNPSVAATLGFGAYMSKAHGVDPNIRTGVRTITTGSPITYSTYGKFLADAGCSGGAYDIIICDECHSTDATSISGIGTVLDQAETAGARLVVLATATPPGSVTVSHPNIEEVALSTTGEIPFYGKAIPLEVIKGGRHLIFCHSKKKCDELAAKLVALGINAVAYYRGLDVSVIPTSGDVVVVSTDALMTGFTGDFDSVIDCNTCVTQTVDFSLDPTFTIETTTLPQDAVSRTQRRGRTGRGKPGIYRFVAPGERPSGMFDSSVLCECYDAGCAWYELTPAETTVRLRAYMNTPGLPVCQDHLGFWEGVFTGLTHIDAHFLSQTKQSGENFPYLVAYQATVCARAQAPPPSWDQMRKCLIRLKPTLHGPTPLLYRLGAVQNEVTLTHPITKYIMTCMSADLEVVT
UniProt P27958, 1658-1711: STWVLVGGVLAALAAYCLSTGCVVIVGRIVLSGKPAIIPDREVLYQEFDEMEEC

pKi: −log10 of the molar value. Some results are limits rather than exact numbers.

One test has as its target Recombinant heterodimeric HCV NS3/NS4A protease (strain 1a) (Hepatitis C virus genotype 1a, UniProt P27958). Put plainly: Spectrophotometric assay for HCV protease inhibitory activity. It counts as biochemical. The settings on record: Table 1, range.
Regarding `C=CCNC(=O)C(=O)C(CCC)NC(=O)[C@@H]1[C@@H]2[C@H](CN1C(=O)[C@@H](NC(=O)N[C@H](CNS(=O)(=O)N(C)C)C(C)(C)C)C(C)(C)C)C2(C)C` (stereo partly drawn) [Compound 10036], the pKi was no less than 7.12.

Consider `C=CCNC(=O)C(=O)C(CCCC)NC(=O)[C@@H]1[C@@H]2[C@H](CN1C(=O)[C@@H](NC(=O)N[C@H](CN(C)S(=O)(=O)N1CCC1)C(C)(C)C)C(C)(C)C)C2(C)C` (stereo partly drawn) [Compound 10052], for which the negative-log Ki (pKi) is no less than 7.12.

Turning to `CCCCC(NC(=O)[C@@H]1[C@@H]2[C@H](CN1C(=O)[C@@H](NC(=O)N[C@H](CN(C)S(=O)(=O)N(C)C)C(C)(C)C)C(C)(C)C)C2(C)C)C(=O)C(=O)NCC` (stereo partly drawn) [Compound 10078], the pKi was no less than 7.12.

With `CN(C[C@@H](NC(=O)N[C@H](C(=O)N1C[C@H]2[C@@H]([C@H]1C(=O)NC(CC1CC1)C(=O)C(N)=O)C2(C)C)C(C)(C)C)C(C)(C)C)S(=O)(=O)N1CCC1` (stereo partly drawn) [Compound 10049], the pKi is no less than 7.12.

`CCCCC(NC(=O)[C@@H]1[C@@H]2[C@H](CN1C(=O)[C@@H](NC(=O)N[C@H](CN(C)S(=O)(=O)N(C)C)C(C)(C)C)C1Cc3ccccc3C1)C2(C)C)C(=O)C(=O)NCC` (stereo partly drawn) [Compound 10057]: the negative-log Ki (pKi) was no less than 7.12.

With `C=CCNC(=O)C(=O)C(CCCC)NC(=O)[C@@H]1[C@@H]2[C@H](CN1C(=O)[C@@H](NC(=O)N[C@H](CN(C)S(=O)(=O)N(C)C)C(C)(C)C)C1CCCCC1)C2(C)C` (stereo partly drawn) [Compound 10079], the pKi is no less than 7.12.

Regarding `C#CCCC(NC(=O)[C@@H]1[C@@H]2[C@H](CN1C(=O)[C@@H](NC(=O)N[C@H](CN(C1CC1)S(=O)(=O)N(C)C)C(C)(C)C)C(C)(C)C)C2(C)C)C(=O)C(=O)NCC=C` (stereo partly drawn) [Compound 10092], the negative-log Ki (pKi) is no less than 7.12.

Regarding `C=CCNC(=O)C(=O)C(CCC(F)(F)F)NC(=O)[C@@H]1[C@@H]2[C@H](CN1C(=O)[C@@H](NC(=O)N[C@H](CN(C)S(=O)(=O)N(C)C)C(C)(C)C)C1CCCCC1)C2(C)C` (stereo partly drawn) [Compound 10086], the negative-log Ki (pKi) was no less than 7.12.

As for `CC(C)(C)[C@H](NC(=O)N[C@H](CNS(=O)(=O)N1CCC1)C(C)(C)C)C(=O)N1C[C@H]2[C@@H]([C@H]1C(=O)NC(CC1CC1)C(=O)C(N)=O)C2(C)C` (stereo partly drawn) [Compound 10020], the pKi was no less than 7.12.

On to `C#CCCC(NC(=O)[C@@H]1[C@@H]2[C@H](CN1C(=O)[C@@H](NC(=O)N[C@H](CN(C)S(=O)(=O)N1CCCCC1)C(C)(C)C)C(C)(C)C)C2(C)C)C(=O)C(=O)NCC=C` (stereo partly drawn) [Compound 10048], for which the negative-log Ki (pKi) is no less than 7.12.

The same test, now with this note: Table 2, range.
As to `CN(C[C@@H](NC(=O)N[C@H](C(=O)N1C[C@H]2[C@@H]([C@H]1C(=O)NC(CC1CC1)C(=O)C(N)=O)C2(C)C)C1Cc2ccccc2C1)C(C)(C)C)S(=O)(=O)C(C)(C)C` (stereo partly drawn) [Compound 11269], the pKi was no less than 7.12.

For `CCCC(NC(=O)[C@@H]1[C@@H]2[C@H](CN1C(=O)[C@@H](NC(=O)N[C@H](CN(C)S(=O)(=O)C1CC1)CC(C)(C)C)C(C)(C)C)C2(C)C)C(=O)C(N)=O` (stereo partly drawn) [Compound 11133], the negative logarithm of the Ki (pKi) was no less than 7.12.

In the case of `CC(C)[C@@H](CN(C)S(=O)(=O)c1cccs1)NC(=O)N[C@H](C(=O)N1C[C@H]2[C@@H]([C@H]1C(=O)NC(CC1CCC1)C(=O)C(N)=O)C2(C)C)C(C)(C)C` (stereo partly drawn) [Compound 11036], the negative logarithm of the Ki (pKi) was no less than 7.12.

As to `CN(C1(CNC(=O)N[C@H](C(=O)N2C[C@H]3[C@@H]([C@H]2C(=O)NC(CC2CC2)C(=O)C(N)=O)C3(C)C)C(C)(C)C)CCCCC1)S(C)(=O)=O` (stereo partly drawn) [Compound 11234], the negative logarithm of the Ki (pKi) was no less than 7.12.

In the case of `CCCC(NC(=O)[C@@H]1[C@@H]2[C@H](CN1C(=O)[C@@H](NC(=O)N[C@H](CN(C)S(=O)(=O)c1cccs1)C(C)(C)C)C(C)(C)C)C2(C)C)C(=O)C(=O)NCCOC` (stereo partly drawn) [Compound 11136], the pKi is 6.60 to 7.12.

For `C=CCNC(=O)C(=O)C(CCCC)NC(=O)[C@@H]1[C@@H]2[C@H](CN1C(=O)[C@@H](NC(=O)N[C@H](CN(C)S(C)(=O)=O)C(C)(C)C)C1Cc3ccccc3C1)C2(C)C` (stereo partly drawn) [Compound 11266], the negative logarithm of the Ki (pKi) was no less than 7.12.

Consider `CCS(=O)(=O)N(C)C[C@@H](NC(=O)N[C@H](C(=O)N1C[C@H]2[C@@H]([C@H]1C(=O)NC(CC1CCC1)C(=O)C(N)=O)C2(C)C)C1Cc2ccccc2C1)C(C)(C)C` (stereo partly drawn) [Compound 11289], for which the negative-log Ki (pKi) is no less than 7.12.

Turning to `C=CCNC(=O)C(=O)C(CCCC)NC(=O)[C@@H]1[C@@H]2[C@H](CN1C(=O)[C@@H](NC(=O)N[C@H](CN(C)S(=O)(=O)c1ccccc1)C(C)C)C(C)(C)C)C2(C)C` (stereo partly drawn) [Compound 11033], the negative-log Ki (pKi) was no less than 7.12.

As for `C=CCNC(=O)C(=O)C(CC=C)NC(=O)[C@@H]1[C@@H]2[C@H](CN1C(=O)[C@@H](NC(=O)N[C@H](CN(C)S(=O)(=O)C(C)(C)C)C(C)(C)C)C(C)(C)C)C2(C)C` (stereo partly drawn) [Compound 11214], the negative-log Ki (pKi) was no less than 7.12.

As to `CN(C[C@@H](NC(=O)N[C@H](C(=O)N1C[C@H]2[C@@H]([C@H]1C(=O)NC(CC1CCC1)C(=O)C(N)=O)C2(C)C)C1(C)CCCCC1)C(C)(C)C)S(=O)(=O)c1ccccn1` (stereo partly drawn) [Compound 11371], the pKi is no less than 7.12.

Take `C=CCNC(=O)C(=O)C(CCC(F)(F)F)NC(=O)[C@@H]1C[C@@H](OC(C)(C)C)CN1C(=O)[C@@H](NC(=O)N[C@H](CN(C)S(C)(=O)=O)C(C)(C)C)C1CCCCC1` (stereo partly drawn) [Compound 11193]: the pKi was 6.60 to 7.12.

Regarding `C=CCNC(=O)C(=O)C(CCCC)NC(=O)[C@@H]1[C@@H]2[C@H](CN1C(=O)[C@@H](NC(=O)N[C@H](CN(C)S(C)(=O)=O)C(C)C)C(C)(C)C)C2(C)C` (stereo partly drawn) [Compound 11031], the pKi was no less than 7.12.

Consider `C=CCNC(=O)C(=O)C(CCC)NC(=O)[C@@H]1[C@@H]2[C@H](CN1C(=O)[C@@H](NC(=O)N[C@H](CN(C)S(C)(=O)=O)C(C)(C)C)C1Cc3ccccc3C1)C2(C)C` (stereo partly drawn) [Compound 11263], for which the negative-log Ki (pKi) was no less than 7.12.

As to `CN(C[C@@H](NC(=O)N[C@H](C(=O)N1C[C@H]2[C@@H]([C@H]1C(=O)NC(CC1CCC1)C(=O)C(N)=O)C2(C)C)C1CCCCC1)C(C)(C)C)S(=O)(=O)c1cccs1` (stereo partly drawn) [Compound 11126], the negative logarithm of the Ki (pKi) is no less than 7.12.

For `CCCCC(NC(=O)[C@@H]1[C@@H]2[C@H](CN1C(=O)[C@@H](NC(=O)N[C@H](CN(C)S(=O)(=O)c1cccs1)C(C)(C)C)C1CCCCC1)C2(C)C)C(=O)C(=O)NC` (stereo partly drawn) [Compound 11315], the negative logarithm of the Ki (pKi) was no less than 7.12.

Consider `C=CCNC(=O)C(=O)C(CCCC)NC(=O)[C@@H]1[C@@H]2[C@H](CN1C(=O)[C@@H](NC(=O)N[C@H](CN(C)S(=O)(=O)c1ccc(C)cc1)C(C)(C)C)C(C)(C)C)C2(C)C` (stereo partly drawn) [Compound 11342], for which the pKi was no less than 7.12.

Consider `C=CCNC(=O)C(=O)C(CC1CC1)NC(=O)[C@@H]1[C@@H]2[C@H](CN1C(=O)[C@@H](NC(=O)N[C@H](CN(C)S(=O)(=O)c1ccccc1C)C(C)(C)C)C(C)(C)C)C2(C)C` (stereo partly drawn) [Compound 11346], for which the negative logarithm of the Ki (pKi) was no less than 7.12.

Turning to `C=CCNC(=O)C(=O)C(CCC(F)(F)F)NC(=O)[C@@H]1[C@@H]2[C@H](CN1C(=O)[C@@H](NC(=O)N[C@H](CN(C)S(=O)(=O)C(C)(C)C)C(C)(C)C)C1Cc3ccccc3C1)C2(C)C` (stereo partly drawn) [Compound 11391], the pKi is 6.60 to 7.12.

As for `C=CCNC(=O)C(=O)C(CC1CC1)NC(=O)[C@@H]1[C@@H]2[C@H](CN1C(=O)[C@@H](NC(=O)N[C@H](CN(C)S(=O)(=O)c1ccccc1)C(C)(C)C)C1CCCCC1)C2(C)C` (stereo partly drawn) [Compound 11055], the negative-log Ki (pKi) was no less than 7.12.

Still in this test, the particulars now being: Table 3, range.
As for `CC[C@H](C)[C@@H](CNS(C)(=O)=O)NC(=O)N[C@H](C(=O)N1C[C@H]2[C@@H]([C@H]1C(=O)NC(CC1CC1)C(=O)C(N)=O)C2(C)C)C(C)(C)C` (stereo partly drawn) [Compound 12024], the pKi is 6.60 to 7.12.

The test is the same for the next values; noted with them: Table 4, range.
Turning to `CC(C)(C)[C@H](NC(=O)N[C@H](CNC(=O)C(F)(F)F)C(C)(C)C)C(=O)N1C[C@H]2[C@@H]([C@H]1C(=O)NC(CC1CC1)C(=O)C(N)=O)C2(C)C` (stereo partly drawn) [Compound 13020], the negative-log Ki (pKi) was no less than 7.12.

Take `CN(C[C@@H](NC(=O)N[C@H](C(=O)N1C[C@H]2[C@@H]([C@H]1C(=O)NC(CC1CCC1)C(=O)C(N)=O)C2(C)C)C(C)(C)C)C(C)(C)C)C(=O)C1CC1` (stereo partly drawn) [Compound 13013]: the pKi is no less than 7.12.

For the compound `CN(C[C@@H](NC(=O)N[C@H](C(=O)N1C[C@H]2[C@@H]([C@H]1C(=O)NC(CC1CC1)C(=O)C(N)=O)C2(C)C)C(C)(C)C)C(C)(C)C)C(=O)c1ccccn1` (stereo partly drawn) [Compound 13022], the negative logarithm of the Ki (pKi) was no less than 7.12.

The test is the same for the next values; noted with them: Table 5, range.
With `CC(C)(C)OC(=O)NCC1(NC(=O)N[C@H](C(=O)N2C[C@H]3[C@@H]([C@H]2C(=O)NC(CC2CCC2)C(=O)C(N)=O)C3(C)C)C(C)(C)C)CCCCC1` (stereo partly drawn) [Compound 14004], the pKi is no less than 7.12.

Take `C=CCNC(=O)C(=O)C(CCC)NC(=O)[C@@H]1[C@@H]2[C@H](CN1C(=O)[C@@H](NC(=O)N[C@H](CN(C)C(=O)OC(C)(C)C)C1CCCCC1)C(C)(C)C)C2(C)C` (stereo partly drawn) [Compound 14051]: the negative logarithm of the Ki (pKi) was less than 6.60.

Turning to `C=CCNC(=O)C(=O)C(CC1CC1)NC(=O)[C@@H]1[C@@H]2[C@H](CN1C(=O)[C@@H](NC(=O)N[C@H](CN(C)C(=O)OC(C)(C)C)C(C)(C)C)C1CCCCC1)C2(C)C` (stereo partly drawn) [Compound 14037], the pKi is less than 6.60.

On to `CC(C)[C@@H](CNC(=O)NC1CCCCC1)NC(=O)N[C@H](C(=O)N1C[C@H]2[C@@H]([C@H]1C(=O)NC(CC1CCC1)C(=O)C(N)=O)C2(C)C)C(C)(C)C` (stereo partly drawn) [Compound 14057], for which the negative-log Ki (pKi) was no less than 7.12.

For the compound `CC(C)[C@@H](CNC(=O)OC(C)(C)C)NC(=O)N[C@H](C(=O)N1C[C@H]2[C@@H]([C@H]1C(=O)NC(CC1CCC1)C(=O)C(N)=O)C2(C)C)C(C)(C)C` (stereo partly drawn) [Compound 14012], the pKi is 6.60 to 7.12.

The test is the same for the next values; noted with them: Table 5A, range.
Regarding `CCCC(NC(=O)[C@@H]1[C@@H]2[C@H](CN1C(=O)[C@@H](NC(=O)N[C@H](CN(C)S(=O)(=O)c1cccnc1)C(C)(C)C)C1(C)CCCCC1)C2(C)C)C(=O)C(=O)NC1CC1` (stereo partly drawn) [Compound 11411], the pKi is no less than 7.12.

Turning to `CCCCC(NC(=O)[C@@H]1[C@@H]2[C@H](CN1C(=O)[C@@H](NC(=O)N[C@H](CN(C)S(=O)(=O)c1ccccn1)C(C)(C)C)C1Cc3ccccc3C1)C2(C)C)C(=O)C(=O)NCC` (stereo partly drawn) [Compound 11396], the negative logarithm of the Ki (pKi) is no less than 7.12.

Staying with this test, now noted: Table 6.
Regarding `CCCC(NC(=O)[C@@H]1[C@@H]2[C@H](CN1C(=O)[C@@H](NC(=O)N[C@H](CN(C)S(=O)(=O)c1cccnc1)C(C)(C)C)C1(C)CCCCC1)C2(C)C)C(=O)C(=O)NC1CC1` (stereo partly drawn) [Compound 11411], the pKi is 8.30.

In the case of `C=CCNC(=O)C(=O)C(CCC)NC(=O)[C@@H]1[C@@H]2[C@H](CN1C(=O)[C@@H](NC(=O)N[C@H](CN(C)S(=O)(=O)N1CCCCC1)C(C)(C)C)C(C)(C)C)C2(C)C` (stereo partly drawn) [drawing 56], the negative-log Ki (pKi) is 7.82.

Values taken from US7759499B2, “Compounds as inhibitors of hepatitis C virus NS3 serine protease” (Schering Corporation, priority 2004, dated 2010).
